Values of other authors in US12653874B2, “Nant cancer vaccine” (NantCell, Inc., priority 2016, dated 2026).

Test system: metastatic melanoma

IL-2: immunotherapy currently approved for treatment of advanced melanoma
overall ORR (high-dose IL-2, metastatic melanoma): 16% | toxicities (in vivo): high toxicities | responders remaining progression free (of the subjects who responded, median follow-up of 62 months): 28%
